Reference: ChEMBL document CHEMBL5210307, “Affinity Biochemical Literature for EUbOPEN Chemogenomics Library wave 3” (2023)

Amino acid sequences for entries named in this document (tags omitted).
UniProt Q15910, whole entry, looked up: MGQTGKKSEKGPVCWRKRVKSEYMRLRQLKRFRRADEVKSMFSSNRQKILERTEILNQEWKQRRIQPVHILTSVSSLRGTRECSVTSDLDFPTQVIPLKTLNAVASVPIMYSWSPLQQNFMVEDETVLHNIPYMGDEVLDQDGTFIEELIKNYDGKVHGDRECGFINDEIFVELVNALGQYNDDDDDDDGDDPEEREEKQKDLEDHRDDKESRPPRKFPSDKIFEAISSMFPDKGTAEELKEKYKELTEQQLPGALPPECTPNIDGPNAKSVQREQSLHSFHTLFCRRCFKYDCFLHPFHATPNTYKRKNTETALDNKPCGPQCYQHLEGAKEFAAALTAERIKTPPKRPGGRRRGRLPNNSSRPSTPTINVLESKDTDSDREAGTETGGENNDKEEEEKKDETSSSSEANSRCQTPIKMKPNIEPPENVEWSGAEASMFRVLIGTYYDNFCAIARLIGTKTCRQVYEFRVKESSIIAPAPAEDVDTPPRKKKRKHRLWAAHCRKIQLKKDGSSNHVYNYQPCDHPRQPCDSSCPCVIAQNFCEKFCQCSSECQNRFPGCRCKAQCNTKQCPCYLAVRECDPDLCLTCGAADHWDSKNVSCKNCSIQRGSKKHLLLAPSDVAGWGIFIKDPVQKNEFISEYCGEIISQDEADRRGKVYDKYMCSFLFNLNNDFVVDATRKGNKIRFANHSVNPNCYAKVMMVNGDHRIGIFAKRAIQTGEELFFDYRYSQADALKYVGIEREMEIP

Molecular target: Histone-lysine N-methyltransferase EZH2 (Homo sapiens) (UniProt Q15910)
Conditions: Affinity Biochemical Source Knowledge https://doi.org/10.1021/ml3003346

CCCc1cc(C)[nH]c(=O)c1CNC(=O)c1cc(-c2ccnc(N3CCN(C)CC3)c2)cc2c1cnn2C(C)C
Ki,app: 1.2 nM
